From patent publication US20090253669A1, “Substituted Sulfonamide Compounds” (GRUENENTHAL GmbH, priority 2008, published 2009)

By UniProt entry, the sequences of proteins in these tests, tags left out. Where a name states a change or a piece, a line headed by the entry shows the natural chain unless it says otherwise.
UniProt P46663: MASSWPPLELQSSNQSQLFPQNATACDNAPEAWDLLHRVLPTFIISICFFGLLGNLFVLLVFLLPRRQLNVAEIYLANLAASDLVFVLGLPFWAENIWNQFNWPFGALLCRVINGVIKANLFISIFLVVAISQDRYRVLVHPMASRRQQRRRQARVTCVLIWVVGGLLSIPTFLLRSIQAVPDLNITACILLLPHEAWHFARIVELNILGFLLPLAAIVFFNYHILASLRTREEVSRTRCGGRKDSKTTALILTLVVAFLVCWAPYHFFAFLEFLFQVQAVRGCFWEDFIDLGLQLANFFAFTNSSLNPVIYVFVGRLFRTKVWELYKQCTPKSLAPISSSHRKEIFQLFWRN
UniProt P97583: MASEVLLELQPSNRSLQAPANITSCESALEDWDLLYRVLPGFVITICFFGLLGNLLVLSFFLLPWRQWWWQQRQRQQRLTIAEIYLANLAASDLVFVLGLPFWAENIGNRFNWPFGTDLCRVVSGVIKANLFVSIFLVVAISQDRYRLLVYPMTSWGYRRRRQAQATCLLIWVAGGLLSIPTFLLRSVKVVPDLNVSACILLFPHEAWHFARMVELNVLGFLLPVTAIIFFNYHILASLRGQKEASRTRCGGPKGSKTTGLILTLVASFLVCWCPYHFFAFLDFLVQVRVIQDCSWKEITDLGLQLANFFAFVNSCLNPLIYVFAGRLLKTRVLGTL
UniProt P35372, whole entry, looked up: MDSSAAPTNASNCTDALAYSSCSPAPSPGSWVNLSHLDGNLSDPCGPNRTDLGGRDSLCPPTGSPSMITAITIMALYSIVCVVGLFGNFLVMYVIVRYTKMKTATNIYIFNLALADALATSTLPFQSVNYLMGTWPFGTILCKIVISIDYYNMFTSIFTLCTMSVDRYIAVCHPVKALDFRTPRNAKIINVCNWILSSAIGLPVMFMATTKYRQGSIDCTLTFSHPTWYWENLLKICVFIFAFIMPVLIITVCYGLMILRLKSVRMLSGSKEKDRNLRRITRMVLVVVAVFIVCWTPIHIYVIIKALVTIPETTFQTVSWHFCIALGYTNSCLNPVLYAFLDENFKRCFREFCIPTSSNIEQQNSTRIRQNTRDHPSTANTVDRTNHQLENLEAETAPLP

Assays:
[1] = biological target: human B1R receptor (hB1R) (Homo sapiens, UniProt P46663); assay: FLIPR Ca2+ assay on hB1R-transfected CHO K1 cells, antagonistic action; format: cell-based; settings: 10 μM test substance; agonist Lys-Des-Arg9-bradykinin 0.5 nM; % of maximum achievable inhibition
[2] = biological target: B1R receptor of the rat (rB1R) (Rattus norvegicus, UniProt P97583); assay: FLIPR Ca2+ assay on rB1R-transfected CHO K1 cells, antagonistic action; format: cell-based; settings: 10 μM test substance; agonist Des-Arg9-bradykinin 100 nM; % of maximum achievable inhibition
human μ opiate receptor = human μ opiate receptor (Homo sapiens, UniProt P35372); assay: [3H]-naloxone displacement, SPA, membranes of CHO-K1 cells; settings: 1 μM test substance; inhibition of specific binding of 1 nmol/l [3H]-naloxone

SMILES | hB1R [10 μM] % inhibition [1] [%] | rB1R [10 μM] % inhibition [2] [%] | μ opioid receptor [1 μM] % inhibition (human μ opiate receptor) [%]
CN(CCC1CCC(CCc2ccccc2)(N2CCCC2)CC1)C(=O)CC1CCCCN1S(=O)(=O)c1cccc(C(F)(F)F)c1 (stereo not drawn) | 102 | 101 | 24
CN(C)C1(CCc2ccccc2)CCC(NC(=O)COCCN(C)S(=O)(=O)c2cccc(C(F)(F)F)c2)CC1 (stereo not drawn) | 50 | 29 | 35
CCN(CCOCC(=O)NC1CCC(CCc2ccccc2)(N(C)C)CC1)S(=O)(=O)c1c(C)cc(OC)c(C)c1C (stereo not drawn) | 73 | 99 | 61
COc1ccc(S(=O)(=O)N2CCCCC2COCC(=O)NC2CCC(CCc3ccccc3)(N(C)C)CC2)cc1 (stereo not drawn) | 48 | 104 | 64
CN(C)C1(CCc2ccccc2)CCC(NC(=O)COCCN(C)S(=O)(=O)c2ccc(Cl)cc2Cl)CC1 (stereo not drawn) | 84 | 66 | 66
COc1ccc(S(=O)(=O)N2CCCCC2COCC(=O)NC2CCC(Cc3ccccc3C)(N(C)C)CC2)cc1 (stereo not drawn) | 43 | 100 | 37
CN(C)C1(CCc2ccccc2)CCC(NC(=O)COCCN(C)S(=O)(=O)c2c(Cl)cccc2Cl)CC1 (stereo not drawn) | 95 | 84 | 60
CN(C)C1(CCc2ccccc2)CCC(NC(=O)COCCN(C)S(=O)(=O)c2c(Cl)cc(Cl)cc2Cl)CC1 (stereo not drawn) | 96 | 66 | 69
Cc1cc(C)c(S(=O)(=O)N(C)CCOCC(=O)NC2CCC(CCc3ccccc3)(N(C)C)CC2)c(C)c1 (stereo not drawn) | 93 | 63 | 51
COc1ccc(S(=O)(=O)N2CCc3ccccc3C2CC(=O)NC2CCC(CCc3ccccc3)(N(C)C)CC2)cc1 (stereo not drawn) | 98 | 102 | 54
CN(C)C1(CCc2ccccc2)CCC(NC(=O)CC2c3ccccc3CCN2S(=O)(=O)c2ccc(Cl)c(Cl)c2)CC1 (stereo not drawn) [Compound 1, 2-(2-(3,4-dichlorophenylsulfonyl)-1,2,3,4-tetrahydroisoquinolin-1-yl)-N-(4-(dimethylamino)-4-phenethylcyclohexyl)acetamide] | – | – | 42
COc1cc(C)c(S(=O)(=O)N2CCCCC2COCC(=O)N(C)CCC2CCC(c3ccccc3)(N3CCCC3)CC2)c(C)c1 (stereo not drawn) [Compound 60, 2-((1-(4-methoxy-2,6-dimethylphenylsulfonyl)piperidin-2-yl)methoxy)-N-methyl-N-(2-(4-phenyl-4-(pyrrolidin-1-yl)cyclohexyl)ethyl)acetamide] | – | – | 79
COc1cc(C)c(S(=O)(=O)N2CCCCC2COCC(=O)N2CCC(CCc3ccccc3)(N3CCN(C)CC3)CC2)c(C)c1 (stereo not drawn) [Compound 77, 2-((1-(4-methoxy-2,6-dimethylphenylsulfonyl)piperidin-2-yl)methoxy)-1-(4-(4-methylpiperazin-1-yl)-4-phenethylpiperidin-1-yl)ethanone] | – | – | 38
CN(CCC1CCC(CCc2ccccc2)(N2CCCC2)CC1)C(=O)CC(NS(=O)(=O)c1ccc2ccccc2c1)c1ccccc1 (stereo not drawn) [Compound 114, N-methyl-3-(naphthalene-2-sulfonamido)-N-(2-(4-phenethyl-4-(pyrrolidin-1-yl)cyclohexyl)ethyl)-3-phenylpropanamide] | – | – | 40
COc1cc(C)c(S(=O)(=O)N(C)CCOCC(=O)N(C)CC2CCC(Cc3ccccc3)(N3CCN(C)CC3)CC2)c(C)c1 (stereo not drawn) [Compound 183, N-((4-benzyl-4-(4-methylpiperazin-1-yl)cyclohexyl)methyl)-2-(2-(4-methoxy-N,2,6-trimethylphenylsulfonamido)ethoxy)-N-methylacetamide] | – | – | 5
COc1cc(C)c(S(=O)(=O)N2CCCC(OCC(=O)NC3CCC(Cc4ccccc4)(N4CCOCC4)CC3)C2)c(C)c1 (stereo not drawn) [Compound 190, N-(4-benzyl-4-morpholinocyclohexyl)-2-(1-(4-methoxy-2,6-dimethylphenylsulfonyl)piperidin-3-yloxy)acetamide] | – | – | 36
